Source: patent publication US9075060B2, “Methods for diagnosing oral or oral-pharyngeal cancer” (Technion Research & Development Foundation Limited, priority 2009, dated 2015)

Protein sequences, listed by entry. Tags and fused reporters are not part of them.
UniProt P30536, whole entry: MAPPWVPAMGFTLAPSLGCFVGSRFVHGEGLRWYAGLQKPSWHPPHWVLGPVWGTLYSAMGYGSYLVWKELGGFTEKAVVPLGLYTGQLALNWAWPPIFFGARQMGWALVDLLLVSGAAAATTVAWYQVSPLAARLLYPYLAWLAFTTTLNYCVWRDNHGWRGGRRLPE

Assays:
TSPO [1] = target: T1, TSPO (Homo sapiens, UniProt P30536); assay: [3H]PK 11195 binding to membranes of SCC-25 cells, Scatchard analysis
T1 construct: Assays of [^3H]; host or cells: SCC-25 and SCC-15 human oral cancer cell lines
Method: (§1) Assays of [^3H] […] After 80 minute incubation at 4° C., the samples were filtered through Whatman CF/C filters using a vacuum system, washed three times with 4 ml of 5 mM ice cold phosphate buffer and placed in vials containing 4 ml of CytoScint™ (MP Biomedicals, Costa Mesa, Calif.). Radioactivity was counted after 12 hours with a liquid scintillation analyzer. Specific binding was obtained by subtracting non-specific binding from total binding.

TSPO [2] = target: T1, TSPO; assay: [3H]PK 11195 binding to membranes of SCC-15 cells, Scatchard analysis
Method: as §1

Question: CCC(C)N(C)C(=O)c1cc2ccccc2c(-c2ccccc2Cl)n1 (centres unmarked) [[^3H]PK 11195, PK 11195] was tested. Which Kd (TSPO [1]) did it give?
Answer: 5.7 ± 2 nM

Question: What about the Kd (TSPO [2]) of the same compound?
Answer: 5.9 ± 4.6 nM
